Results from patent publication US6337351B1, “Pharmaceutical compositions and methods for use” (Targacept, Inc., priority 1998, dated 2002).

Chains of the proteins cited; added tags and fusions are not shown. Residues count along the entry.
UniProt P09483, 31-630: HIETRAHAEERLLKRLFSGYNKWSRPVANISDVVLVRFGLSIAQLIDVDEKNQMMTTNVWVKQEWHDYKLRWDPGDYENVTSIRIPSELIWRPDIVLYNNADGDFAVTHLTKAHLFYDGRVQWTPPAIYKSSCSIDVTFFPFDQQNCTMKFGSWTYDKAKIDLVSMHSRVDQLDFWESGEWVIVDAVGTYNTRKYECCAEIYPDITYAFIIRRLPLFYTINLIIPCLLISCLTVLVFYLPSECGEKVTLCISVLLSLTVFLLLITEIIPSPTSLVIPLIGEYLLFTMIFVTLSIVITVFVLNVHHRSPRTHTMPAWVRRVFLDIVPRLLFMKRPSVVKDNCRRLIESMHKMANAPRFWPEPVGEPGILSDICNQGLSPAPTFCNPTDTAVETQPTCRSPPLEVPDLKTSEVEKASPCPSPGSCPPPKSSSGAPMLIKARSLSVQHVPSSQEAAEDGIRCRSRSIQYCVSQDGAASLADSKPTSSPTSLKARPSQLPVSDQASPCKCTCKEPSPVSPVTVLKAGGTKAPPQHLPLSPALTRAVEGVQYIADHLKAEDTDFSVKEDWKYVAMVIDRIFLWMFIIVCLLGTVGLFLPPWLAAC
UniProt P12390, 25-500: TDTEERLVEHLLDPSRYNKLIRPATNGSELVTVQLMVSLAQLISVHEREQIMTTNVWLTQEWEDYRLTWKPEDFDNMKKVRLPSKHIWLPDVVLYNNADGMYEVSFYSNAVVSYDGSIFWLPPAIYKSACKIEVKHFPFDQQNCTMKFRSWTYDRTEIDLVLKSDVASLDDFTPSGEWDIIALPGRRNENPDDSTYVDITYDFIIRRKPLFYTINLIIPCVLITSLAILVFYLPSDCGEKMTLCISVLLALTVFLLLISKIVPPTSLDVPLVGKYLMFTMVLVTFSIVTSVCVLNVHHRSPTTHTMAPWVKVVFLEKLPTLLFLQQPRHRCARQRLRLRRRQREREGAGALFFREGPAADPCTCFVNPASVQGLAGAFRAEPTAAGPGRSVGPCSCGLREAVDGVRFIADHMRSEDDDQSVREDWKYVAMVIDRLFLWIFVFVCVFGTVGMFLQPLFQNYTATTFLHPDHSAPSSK

Biological target: CNS nicotinic receptors (Rattus norvegicus, UniProt P09483+P12390)
Assay: Binding to relevant receptor sites
Details: inhibition constants calculated from IC50 values by the method of Cheng et al.
Protocol: Determination of Binding to Relevant Receptor Sites
Binding of the compounds to relevant receptor sites was determined in accordance with the techniques described in U.S. Pat. No. 5,597,919 to Dull et al. Inhibition constants (Ki values), reported in nM, were calculated from the IC50 values using the method of Cheng et al., Biochem, Pharmacol. 22:3099 (1973).

(4E)-N-methyl-5-(3,4-dichlorophenyl)-4-penten-2-amine hemigalactarate [Sample No. 5]
Ki: 100 µM

(4E)-N-methyl-5-(3-(dimethylamino)phenyl)-4-penten-2-amine hemigalactarate [Sample No. 8]
Ki: 14.4 µM
